From patent US20070009965A1, “Novel method for screening for GPCR agonists and/or antagonists from herbs” (Advanced Gene Technology, Corp., priority 2004, published 2007)

The chains behind the UniProt entries cited, without tags or fusion partners.
UniProt P32245, whole entry, species assumed: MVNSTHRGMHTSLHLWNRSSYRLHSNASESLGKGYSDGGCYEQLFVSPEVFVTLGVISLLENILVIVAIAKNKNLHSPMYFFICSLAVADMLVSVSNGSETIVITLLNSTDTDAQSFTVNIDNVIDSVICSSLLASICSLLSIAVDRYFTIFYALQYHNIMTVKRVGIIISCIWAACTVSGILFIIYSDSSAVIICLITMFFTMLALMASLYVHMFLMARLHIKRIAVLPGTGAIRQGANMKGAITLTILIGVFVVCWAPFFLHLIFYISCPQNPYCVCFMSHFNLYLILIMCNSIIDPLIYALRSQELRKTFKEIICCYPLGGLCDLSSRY

Target: MC4R (Homo sapiens, UniProt P32245)
Assay: herbal chip hybridization with MC4R and Cy3-anti-MC4R, fluorescence imaging
Assay type: binding
Conditions: at least 25 ng/ml NDP-MSH spotted on coated slide; at least 25 μg/ml MC4R; at least 5 μg/ml Cy3-anti-MC4R; laser scanner
Method: A coated plastic slide (1) having active epoxy groups on its surface was prepared in accordance with the method disclosed in the Paragraph entitled “Pretreatment of the Plastic Slide and Preparation of the Coated Plastic Slide” under the Example section of U.S. Pat. No. 6,645,719 B2.
In accordance with the teaching of the Paragraph entitled “Loading Samples onto the Coated Plastic Slide in Microarray Format” under the Example section of U.S. Pat. No. 6,645,719 B2, at least 25 ng/ml of α-melanocyte stimulating hormone (NDP-MSH, NH2-Ser-Thr-Ser-Nle-Glu-His-D-Phe-Arg-Trp-Gly-Lys-Pro-Val-OH), that can bind to melanocortin receptors (MCXR), i.e. representatives of GPCRs, were spotted onto the coated plastic slide (1) by Microarrayer BioGrid I (BioRobotic, Cambridge, UK), and then the resultant slide (2) was washed with a blocking buffer (0.1 M sodium borate and 0.1 M ethanolamine) for removing unbound proteins.
In a dark room, under room temperature, at least 25 μg/ml of MC3R, MC4R and MC5R were individually added to the slides (2), and the resultant slides (3) were allowed to stand for 1 hour for completing hybridization. The slides (3) were washed with 1× TBST buffer (50 mM Tris, pH 7.3, 0.15 M NaCl and 0.02% Tween 20) and Milli-Q water, and then dried in an incubator at 37° C. […]

NH2-Ser-Thr-Ser-Nle-Glu-His-D-Phe-Arg-Trp-Gly-Lys-Pro-Val-OH [NDP-MSH]
Mean of Fluorescence Intensity (M): 58.50
